Measured values reported in ChEMBL document CHEMBL1821686, “Structure-based optimization of potent 4- and 6-azaindole-3-carboxamides as renin inhibitors” (Bioorg Med Chem Lett, 2011).

Sequences of proteins named here, by UniProt entry; tags and fusion partners are left off. A change or cut given only in a name is not applied to a line headed by its entry.
UniProt P00797: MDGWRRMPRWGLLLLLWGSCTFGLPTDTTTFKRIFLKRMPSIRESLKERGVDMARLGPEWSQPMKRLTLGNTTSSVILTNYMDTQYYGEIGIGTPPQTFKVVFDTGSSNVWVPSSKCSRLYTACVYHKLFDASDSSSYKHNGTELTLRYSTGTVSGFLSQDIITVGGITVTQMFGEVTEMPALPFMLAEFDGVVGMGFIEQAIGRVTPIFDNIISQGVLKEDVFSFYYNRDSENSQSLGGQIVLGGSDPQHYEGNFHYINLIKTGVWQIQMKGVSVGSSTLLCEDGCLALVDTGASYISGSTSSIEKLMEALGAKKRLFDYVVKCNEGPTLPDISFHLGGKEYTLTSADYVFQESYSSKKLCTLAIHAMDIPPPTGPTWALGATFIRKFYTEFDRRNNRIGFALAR

Target: Renin (Homo sapiens, UniProt P00797)

IC50: 3 nM
SMILES: Cc1ccc(F)cc1Oc1c(C(=O)N2CCNCC2)c2ccnc(Cc3ccccc3)c2n1-c1ccccc1
